# Laboratory results from ChEMBL document CHEMBL1134650.
# The chains behind the UniProt entries cited, without tags or fusion partners.
# UniProt P34975, whole entry: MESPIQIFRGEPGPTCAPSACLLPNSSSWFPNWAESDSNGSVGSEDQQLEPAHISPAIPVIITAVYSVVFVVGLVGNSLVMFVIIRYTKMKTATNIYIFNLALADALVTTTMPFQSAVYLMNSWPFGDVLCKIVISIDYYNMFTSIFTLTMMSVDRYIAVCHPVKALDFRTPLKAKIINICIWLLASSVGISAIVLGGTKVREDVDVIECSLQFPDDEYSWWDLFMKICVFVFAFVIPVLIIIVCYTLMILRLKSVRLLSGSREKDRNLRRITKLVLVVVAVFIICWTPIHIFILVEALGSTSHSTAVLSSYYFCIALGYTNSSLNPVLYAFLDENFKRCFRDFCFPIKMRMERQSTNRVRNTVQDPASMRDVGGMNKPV
# UniProt P33533, whole entry: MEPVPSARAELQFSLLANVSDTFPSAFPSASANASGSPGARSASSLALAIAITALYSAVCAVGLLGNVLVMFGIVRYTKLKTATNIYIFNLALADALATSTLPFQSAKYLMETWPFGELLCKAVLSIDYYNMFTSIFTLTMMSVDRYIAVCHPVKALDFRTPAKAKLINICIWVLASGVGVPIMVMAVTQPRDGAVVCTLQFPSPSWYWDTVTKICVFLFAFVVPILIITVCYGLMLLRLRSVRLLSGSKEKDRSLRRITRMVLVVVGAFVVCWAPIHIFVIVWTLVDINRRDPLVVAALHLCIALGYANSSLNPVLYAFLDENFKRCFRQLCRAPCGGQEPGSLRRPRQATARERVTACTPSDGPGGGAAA
# UniProt P33535, whole entry: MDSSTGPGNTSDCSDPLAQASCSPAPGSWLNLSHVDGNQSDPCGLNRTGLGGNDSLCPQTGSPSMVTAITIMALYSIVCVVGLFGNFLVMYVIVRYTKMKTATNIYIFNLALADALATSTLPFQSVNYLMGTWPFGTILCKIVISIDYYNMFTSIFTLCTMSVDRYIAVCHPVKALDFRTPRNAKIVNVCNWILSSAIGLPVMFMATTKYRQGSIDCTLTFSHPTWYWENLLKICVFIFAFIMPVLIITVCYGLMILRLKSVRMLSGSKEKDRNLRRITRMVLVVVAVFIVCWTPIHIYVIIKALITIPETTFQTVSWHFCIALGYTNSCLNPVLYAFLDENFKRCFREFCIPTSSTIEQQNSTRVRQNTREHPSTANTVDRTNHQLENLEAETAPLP
# Key:
# [1] = target: Kappa-type opioid receptor (Rattus norvegicus, UniProt P34975); assay: Affinity of [3H]U-69593 to opioid receptor kappa 1 from rat brain
# [2] = target: Delta-type opioid receptor (Rattus norvegicus, UniProt P33533); assay: Affinity of [H]DADLE to the delta opioid receptor from rat brain
# [3] = target: Mu-type opioid receptor (Rattus norvegicus, UniProt P33535); assay: Affinity of [3H]DAMGO to the mu opioid receptor from rat brain
Compound,Ki [1],Ki [2],Ki [3]
CCN(CC)C(=O)c1ccc(N(c2cccc(OC)c2)[C@@H]2CCN(CC=C(C)C)C[C@@H]2C)cc1,6.02 µM,0.036 µM,3.39 µM
C=CCN1C[C@H](C)[C@H](N(c2ccccc2)c2ccc(C(=O)N(CC)CC)cc2)C[C@@H]1C,2.9 µM,0.053 µM,3.89 µM
CCN(CC)C(=O)c1ccc(N(c2ccccc2)[C@@H]2CCN(C/C=C/c3ccccc3)C[C@@H]2C)cc1,13.5 µM,0.068 µM,6.42 µM
C=CCN1C[C@H](C)[C@@H](N(c2ccccc2)c2ccc(C(=O)N(CC)CC)cc2)C[C@H]1C,6.32 µM,0.093 µM,9.9 µM
C/C=C/CN1CC[C@@H](N(c2ccccc2)c2ccc(C(=O)N(CC)CC)cc2)[C@@H](C)C1,1.64 µM and > 7.46 µM,0.00272 µM and 0.007 µM,0.938 µM and 3.59 µM
CCN(CC)C(=O)c1ccc(N(c2ccccc2)[C@@H]2CCN(C)C[C@@H]2C)cc1,> 6.06 µM,0.0456 µM,0.388 µM
CCN(CC)C(=O)c1ccc(N(c2cccc(OC)c2)[C@@H]2CCN(C)C[C@@H]2C)cc1,> 6.06 µM,0.141 µM,> 5.92 µM
C=CCN1CC[C@@H](N(c2ccccc2)c2ccc(C(=O)N(CC)CC)cc2)[C@@H](C)C1,,,> 4.85 µM
CCN(CC)C(=O)c1ccc(N(c2cccc(OC)c2)[C@@H]2CCN(C/C=C/c3ccccc3)C[C@@H]2C)cc1,> 7.46 µM,0.093 µM,> 6.54 µM
CCN(CC)C(=O)c1ccc(N(c2cccc(OC)c2)[C@@H]2CCN(CC3CC3)C[C@H]2C)cc1,> 7.46 µM,0.23 µM,> 6.54 µM
C=CCN1CC[C@@H](N(c2ccc(C(=O)N(CC)CC)cc2)c2cccc(OC)c2)[C@@H](C)C1,> 7.46 µM,0.022 µM,5.33 µM
C=C(C)CN1CC[C@@H](N(c2ccccc2)c2ccc(C(=O)N(CC)CC)cc2)[C@@H](C)C1,> 7.46 µM,0.036 µM,1.26 µM
C=CCN1C[C@H](C)[C@H](N(c2ccccc2)c2ccc(C(=O)N(CC)CC)cc2)C[C@H]1C,1.16 µM,0.0188 µM,0.171 µM
C=CCN1CC[C@@H](N(c2ccc(C(=O)N(CC)CC)cc2)c2cccc(OC)c2)[C@H](C)C1,> 7.46 µM,0.379 µM,4.87 µM
CCN(CC)C(=O)c1ccc(N(c2ccccc2)[C@@H]2CCN(CC=C(C)C)C[C@@H]2C)cc1,> 7.46 µM,0.015 µM,3.78 µM
C/C=C/CN1CC[C@@H](N(c2ccc(C(=O)N(CC)CC)cc2)c2cccc(OC)c2)[C@@H](C)C1,> 7.46 µM,0.018 µM,3.25 µM
CCN(CC)C(=O)c1ccc(N(c2ccccc2)[C@@H]2CCN(C)C[C@H]2C)cc1,> 6.06 µM,0.257 µM,1.51 µM
CCN(CC)C(=O)c1ccc(N(c2cccc(OC)c2)[C@@H]2CCN(CC3CC3)C[C@@H]2C)cc1,> 7.46 µM,0.036 µM,> 6.54 µM
CCN(CC)C(=O)c1ccc(N(c2cccc(OC)c2)[C@@H]2CCN(C)C[C@H]2C)cc1,6.3 µM,0.178 µM,3.32 µM
C=C(C)CN1CC[C@@H](N(c2ccc(C(=O)N(CC)CC)cc2)c2cccc(OC)c2)[C@@H](C)C1,> 7.46 µM,0.072 µM,5.68 µM
C=CCN1CC[C@@H](N(c2ccc(C(=O)N(CC)CC)cc2)c2cccc(O)c2)[C@@H](C)C1,0.0767 µM,0.00185 µM,0.126 µM
CCN(CC)C(=O)c1ccc(N(c2ccccc2)[C@@H]2CCN(CC3CC3)C[C@H]2C)cc1,> 6.06 µM,0.193 µM,5.34 µM
CCN(CC)C(=O)c1ccc(N(c2ccccc2)[C@@H]2CCN(CC3CC3)C[C@@H]2C)cc1,2.38 µM,0.02 µM,0.16 µM

# Several values for one entry are separate records, joined by “and”; a condition that tells them apart may be missing. Equal values may be shown once.
